# Assay results reported in US20050164951A1, “Inhibitors for the soluble epoxide hydrolase” (The Regents of the University of California, priority 2003, published 2005).
# Test: Pharmacokinetics after oral gavage in mice
# Conditions: FIG. 10; 5 mg/kg oral 800 versus 687, mice
smiles,measurement,value
"CCCCOC(=O)CCCCCCCCCCCNC(=O)NC12CC3CC(CC(C3)C1)C2 [Compound 800, 1-(1-Adamantyl)-3-(11-butoxycarbonylundecyl)urea]",half-life,longer half-life
